# Results from patent US10119168B2, “Methods for the treatment of kidney fibrosis” (priority 2014, dated 2018).
# System: mouse liver
# Settings: in vivo
# From the text: Fibrosis is a universal pathological finding for chronic diseases in any organ(14) and it would be useful to identify biomarkers of fibrosis that are specific for an organ or be able to indicate their origin.
# Animals were housed in an Association for Assessment and Accreditation of Laboratory Animal Care International-accredited facility at Michigan State University and all procedures were approved by the Michigan State University Institutional Animal Care and Use Committee.
# Formalin fixed, paraffin embedded kidney sections were Masson Trichrome's stained and evaluated by a renal pathologist under a light microscope in blinded fashion relative to sample group. Percent area of fibrosis relative to the total section area was evaluated. […]
# Total RNA was extracted from frozen kidney tissue using TRIzol reagent (Invitrogen). Following RNA concentration measurement by NanoDrop spectrophotometer (Thermo Fischer Scientific), 1 μg RNA was used for cDNA preparation using QuantiTect Reverse Transcription Kit from Qiagen (Valencia, Calif.). qRT-PCR using QuantiFast SYBR Green PCR Kit (Qiagen) was performed in 384-well plates on an Applied Biosystems 7900HT Fast Real-Time PCR System instrument with the following temperature profile: 3 min enzyme activation at 95° C. followed by 40 cycles of 95° C. for 10 s, and 55° C. for 30 s. […]
compound,measurement,value
"S=C=Nc1cccc2ccccc12 [ANIT, α-naphthylisothiocyanate]",peribiliary fibrosis (Picrosirius red staining),significantly increased peribiliary fibrosis
